Results on one molecule are retold here after patent publication US6673801B1, “Dihydroxyhexanoic acid derivatives” (Pfizer Inc., priority 1998, dated 2004).

For the series the following is noted: pH 7.

Consider `CC(C)(O)CC[C@H](C[C@H](O)[C@H](Cc1ccccc1)NC(=O)c1cnc2c(F)c(F)ccc2c1)C(N)=O` [Example 3], for which the Solubility (usually how much of the substance goes into solution per volume) is above 250 µg/mL.
